The values below come from article PMC8429170 (Cellular and Molecular Life Sciences: CMLS, 2021).

Bounds are passed on as bounds.

Assay [1] concerns the target T1, GPR1 (Homo sapiens, UniProt P46091).
T1 construct: expressed in transfected cells; host or cells: COS-7, transient
In words: cell-based. As for the experimental part:
Arrestin recruitment was characterized by measuring the bioluminescence resonance energy transfer (BRET) ratio between luciferase-tagged arrestin3 and either GPR1-eYFP or CMKLR1-eYFP as described previously. In brief, COS-7 cells in 75 cm^2 cell culture flasks were transiently transfected overnight with 7800 ng GPR1-eYFP or CMKLR1-eYFP in pVitro2 and 200 ng Rluc8-Arr3 in pcDNA3 using MetafectenePro according to the manufacturer’s protocol. […] For kinetic measurements, cells were stimulated with agonist in buffer or buffer alone, and fluorescence was measured for 20 min using a Tecan Infinite M 200 Reader (Tecan, Männerdorf, Switzerland) using the filter sets Green1 (YFP emission, luminescence 520–570 nm) and Blue1 (luciferase luminescence 370–480 nm). For concentration–response curves, cells were stimulated with agonist or blank, and luminescence was measured after 10 min. BRET signal was calculated as the ratio of fluorescence divided by luminescence, netBRET signal was calculated by subtracting the BRET signal of unstimulated wells from the respective samples.

Assay [2] concerns the target T2, GPR1-eYFP (human) (UniProt P46091).
T2 sequence: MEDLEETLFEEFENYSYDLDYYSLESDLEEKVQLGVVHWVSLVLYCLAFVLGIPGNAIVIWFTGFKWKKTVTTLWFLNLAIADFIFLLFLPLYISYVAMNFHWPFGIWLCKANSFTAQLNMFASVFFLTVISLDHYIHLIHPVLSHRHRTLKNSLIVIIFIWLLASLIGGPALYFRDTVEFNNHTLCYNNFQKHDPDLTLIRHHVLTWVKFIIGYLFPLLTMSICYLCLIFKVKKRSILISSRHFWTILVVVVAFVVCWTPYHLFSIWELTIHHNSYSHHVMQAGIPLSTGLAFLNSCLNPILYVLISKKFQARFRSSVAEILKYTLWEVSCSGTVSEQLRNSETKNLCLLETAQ

In turn, `C[C@H](NC(=O)[C@H](Cc1ccccc1)NC(=O)[C@H](CCC(N)=O)NC(=O)CNC(=O)[C@@H]1CCCN1)C(=O)N[C@@H](Cc1ccccc1)C(=O)N[C@@H](CO)C(=O)O` [Chem^151−157] gave an EC50 in assay [1] of more than 1000 nM. On to `CC(C)C[C@H](NC(=O)[C@H](C)NC(=O)[C@H](Cc1ccccc1)NC(=O)[C@H](CCC(N)=O)NC(=O)CNC(=O)[C@@H]1CCCN1C(=O)[C@H](Cc1ccccc1)NC(=O)[C@@H](N)Cc1ccc(O)cc1)C(=O)N[C@@H](CO)C(=O)O` [[L^8]-chemerin-9], for which the EC50 in assay [1] is 1.38 nM. For the same molecule, in assay [1] (COS-7), the maximal response (Emax) was 125 ± 12%. In the case of `C[C@@H]1NC(=O)[C@H](Cc2ccccc2)NC(=O)[C@H](CCC(N)=O)NC(=O)CNC(=O)[C@@H]2CCCN2C(=O)[C@H](Cc2ccccc2)NC(=O)[C@H](Cc2ccc(O)cc2)NC(=O)[C@H](CO)NC(=O)[C@H](Cc2ccccc2)NC1=O` [[N–C]-c(chemerin-9)], the EC50 in assay [1] was determined as 132 nM. Molecule `C[C@H](NC(=O)[C@@H]1CCCN1C(=O)[C@H](Cc1ccccc1)NC(=O)[C@H](Cc1ccccc1)NC(=O)[C@H](CO)NC(=O)[C@H](Cc1ccc(O)cc1)NC(=O)[C@H](Cc1ccccc1)NC(=O)[C@@H](N)CCC(N)=O)C(=O)NCC(=O)O` [scr2C9] came in with an EC50 in assay [1] of more than 1000 nM.

[L^8] chemerin-9 (peptide) gave an EC50 of arrestin3 recruitment to GPR1-eYFP (BRET with Rluc8-Arr3, COS-7 cells) in assay [2] of 1.4 nM.

B1: ChemS157 (ligand)
chain: ELTEAQRRGLQVALEEFHKHPPVQWAFQETSVESAVDTPFPAGIFVRLEFKLQQTSCRKRDWKKPECKVRPNGRKRKCLACIKLGSEDKVLGRLVHCPIETQVLREAEEHQETQCLRVQRAGEDPHSFYFPGQFAFS
On to B1, for which the EC50 of arrestin3 recruitment to GPR1-eYFP (BRET with Rluc8-Arr3, COS-7 cells) in assay [2] was 2.1 nM.

B2: ChemF156 (ligand)
chain: ELTEAQRRGLQVALEEFHKHPPVQWAFQETSVESAVDTPFPAGIFVRLEFKLQQTSCRKRDWKKPECKVRPNGRKRKCLACIKLGSEDKVLGRLVHCPIETQVLREAEEHQETQCLRVQRAGEDPHSFYFPGQFAF
For B2, in assay [2], the EC50 of arrestin3 recruitment to GPR1-eYFP (BRET with Rluc8-Arr3, COS-7 cells) was 2.6 nM.
